Measurements from PubChem BioAssay AID652163 (Broad Institute, 2013).
The list shows a part of the results, in another mix than the full data. Active and inactive are the calls of the source.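 How the source made its calls: active means mean inhibition of at least 70% across replicates, with every replicate also reaching that level; inconclusive means mean inhibition reaches 70% but some replicates fall short; inactive means mean inhibition below 70%.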

Amino acid sequences for entries named in this document (tags omitted).
UniProt P26447, whole entry: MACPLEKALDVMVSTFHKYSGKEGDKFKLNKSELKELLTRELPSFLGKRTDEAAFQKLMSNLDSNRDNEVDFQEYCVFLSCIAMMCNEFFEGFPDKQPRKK

What follows are molecules tested against Protein S100-A4 (Homo sapiens) (UniProt P26447) (assay: inhibitors of S100A4-myosin IIA peptide binding, primary screen, biochemical, fluorescence polarization, TAMRA-MyoIIA peptide (AID 652163)). Settings: at 10.7 µM, active compounds read high.
Summary of the method: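 assay system = human S100A4 monomer with TAMRA-labelled myosin IIA peptide | also added = labelled myosin peptide probe, 5 nM | incubation = 5 min between mix addition and reading | control set = DMSO and TFP controls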
With `CN1CCC(Nc2ccc(F)c(Cl)c2)CC1` the inhibition was inactive: 0.06%.
In the case of `CCCOc1ccc(C(=O)NCC2(N(C)C)CCCCC2)cc1`, the inhibition is reported as inactive: 11.8%.
In the case of `O=c1[nH]c2ccccc2n1C1CCN(C(c2cc3ccccc3o2)c2nnnn2C2CCCC2)CC1` (stereo not drawn), the inhibition is reported as inactive: -7.2%.
In the case of `CC(C)(C)OC(=O)N1CCC(Nc2ccccc2)CC1`, the inhibition is reported as inactive: -5.84%.
`NN(c1ccccc1)C1CCN(CCc2ccccc2)CC1` was tested, and the inhibition was inactive: -3.87%.
`O=C(O)C1(Nc2ccccc2)CCN(Cc2ccccc2)CC1` was tested, and the inhibition was inactive: -2.31%.
`COc1cccc(C(=O)N(c2cc(C)cc(C)c2)C2CCN(C(=O)OC(C)(C)C)CC2)c1` was tested, and the inhibition was inactive: -1.62%.
`COc1cccc(C(c2nnnn2C2CCCC2)N2CCC(n3c(=O)[nH]c4ccccc43)CC2)c1OC` (stereo not drawn) was tested, and the inhibition was inactive: 0.793%.
For `COc1cc(OC)cc(C(=O)NCC2(N3CCOCC3)CCCCC2)c1`, the inhibition was inactive: 1.39%.
`CN1CCC(Nc2ccc(Cl)cc2)CC1` was tested, and the inhibition was inactive: -4.83%.
For `O=c1[nH]c2ccccc2n1C1CCN(C(c2ccnc3ccccc23)c2nnnn2C2CCCCC2)CC1` (stereo not drawn), the inhibition was inactive: -0.594%.
For `COc1cc(OC)cc(C(=O)NCC2(N3CCCCC3)CCCCC2)c1`, the inhibition was inactive: -6.85%.
With `CC(=O)N(c1ccccc1)C1CCNCC1` the inhibition was inactive: -11.7%.
In the case of `COc1cccc(C(c2nnnn2C2CCCCC2)N2CCC(n3c(=O)[nH]c4ccccc43)CC2)c1OC` (stereo not drawn), the inhibition is reported as inactive: -3.27%.
`CCC(c1nnnn1C1CCCCC1)N1CCC(n2c(=O)[nH]c3ccccc32)CC1` (stereo not drawn) was tested, and the inhibition was inactive: -9.1%.
With `Cc1ccc(NC2(C#N)CCN(Cc3ccccc3)CC2)cc1` the inhibition was inactive: 0.203%.
In the case of `Cc1ccc(C(=O)NCC2(N3CCCCC3)CCCCC2)o1`, the inhibition is reported as inactive: -6.87%.
In the case of `Fc1ccccc1NC1CCN(Cc2ccccc2)CC1`, the inhibition is reported as inactive: -2.01%.
For `Cc1ccccc1NC1(C#N)CCN(Cc2ccccc2)CC1`, the inhibition was inactive: 2.59%.
In the case of `CC(C)(C)n1nnnc1C(c1ccnc2ccccc12)N1CCC(n2c(=O)[nH]c3ccccc32)CC1` (stereo not drawn), the inhibition is reported as inactive: -6.73%.
`COc1ccc(C(c2nnnn2C2CCCCC2)N2CCC(n3c(=O)[nH]c4ccccc43)CC2)cc1` (stereo not drawn) was tested, and the inhibition was inactive: -2.21%.
`O=C(NCC1(N2CCCCC2)CCCCC1)c1ccco1` was tested, and the inhibition was inactive: -63.8%.
`Cn1c(=O)[nH]cc(N(CCCl)CCCl)c1=O` was tested, and the inhibition was inactive: 1.29%.
For `CN(C)c1ccc(C(=O)NCC2(N3CCCCC3)CCCCC2)cc1`, the inhibition was inactive: -1.84%.
For `CC(C)(C)OC(=O)N1CCC(N(C(=O)c2ccccc2)c2ccc(Cl)cc2)CC1`, the inhibition was inactive: -6.31%.
`N#Cc1ccc(C(=O)NCC2(N3CCCCC3)CCCCC2)cc1` was tested, and the inhibition was inactive: -0.93%.
For `C/C(N)=N\P(=O)(Oc1ccccc1)Oc1ccccc1`, the inhibition was inactive: -0.973%.
`CCCN1CCC(Nc2cc(OC)cc(OC)c2)CC1` was tested, and the inhibition was inactive: 34.2%.
In the case of `O=c1[nH]c2ccccc2n1C1CCN(C(c2ccccc2)c2nnnn2C2CCCC2)CC1` (stereo not drawn), the inhibition is reported as inactive: -10.5%.
With `Cc1cc(N(CCCl)CCCl)ccc1C=O` the inhibition was inactive: -19.5%.
With `CN(C)C1(CNC(=O)c2cccc(C#N)c2)CCCCC1` the inhibition was inactive: 3.12%.
In the case of `CC(C)(C)n1nnnc1C(c1cccc2ccccc12)N1CCC(n2c(=O)[nH]c3ccccc32)CC1` (stereo not drawn), the inhibition is reported as inactive: 15.3%.
`O=C(NCC1(N2CCOCC2)CCCCC1)c1cc(Br)ccc1Cl` was tested, and the inhibition was inactive: -7.34%.
In the case of `CCCCn1nnnc1C(c1ccccc1)N1CCC(n2c(=O)[nH]c3ccccc32)CC1` (stereo not drawn), the inhibition is reported as inactive: -23%.
With `COc1cc(C(=O)NCC2(N3CCOCC3)CCCCC2)cc(OC)c1C` the inhibition was inactive: -1.54%.
For `COc1ccc(C(=O)NCC2(N3CCOCC3)CCCCC2)cc1OC`, the inhibition was inactive: 1.64%.
For `O=c1[nH]c2ccccc2n1C1CCN(C(c2ccnc3ccccc23)c2nnnn2C2CCCC2)CC1` (stereo not drawn), the inhibition was inactive: -2.91%.
`O=c1[nH]c2ccccc2n1C1CCN(C(c2cccs2)c2nnnn2C2CCCCC2)CC1` (stereo not drawn) was tested, and the inhibition was inactive: 0.949%.
In the case of `COc1cccc(C(c2nnnn2C(C)(C)C)N2CCC(n3c(=O)[nH]c4ccccc43)CC2)c1OC` (stereo not drawn), the inhibition is reported as inactive: -10.3%.
In the case of `CCOC(=O)N1CCC(Nc2ccc(C)cc2)CC1`, the inhibition is reported as inactive: -0.083%.
For `CCCCn1nnnc1C(c1cccc(OC)c1OC)N1CCC(n2c(=O)[nH]c3ccccc32)CC1` (stereo not drawn), the inhibition was inactive: -2.01%.
In the case of `O=c1[nH]c2ccccc2n1C1CCN(C(c2cccs2)c2nnnn2C2CCCC2)CC1` (stereo not drawn), the inhibition is reported as inactive: -0.96%.
With `COc1ccc(CN(CCCl)CCCl)cc1Cl` the inhibition was inactive: -4.95%.
For `CN(C)c1cccc(C(=O)NCC2(N3CCCCC3)CCCCC2)c1`, the inhibition was inactive: -10.6%.
With `CC(C)c1ccc(NC2CCN(C(=O)OC(C)(C)C)CC2)cc1` the inhibition was inactive: -1.16%.
With `CCCCn1nnnc1C(c1ccnc2ccccc12)N1CCC(n2c(=O)[nH]c3ccccc32)CC1` (stereo not drawn) the inhibition was inactive: -5.15%.
With `COc1cc(OC)c(C(=O)NCC2(N(C)C)CCCCC2)cc1OC` the inhibition was inactive: 7.48%.
`O=C(NCC1(N2CCOCC2)CCCCC1)c1cc(F)c(F)cc1Cl` was tested, and the inhibition was inactive: -0.962%.
`CCC(c1nnnn1C(C)(C)C)N1CCC(n2c(=O)[nH]c3ccccc32)CC1` (stereo not drawn) was tested, and the inhibition was inactive: -3.24%.
`O=C(NCC1(N2CCCCC2)CCCCC1)c1cncc(Br)c1` was tested, and the inhibition was inactive: 0.028%.
`CN1CCC(Nc2cccc(F)c2)CC1` was tested, and the inhibition was inactive: 4.37%.
With `Cc1ccc(C(=O)NCC2(N(C)C)CCCCC2)o1` the inhibition was inactive: 1.22%.
`CCCOc1ccc(C(=O)NCC2(N(C)C)CCCCC2)cc1OC` was tested, and the inhibition was inactive: -9.86%.
`COc1ccc(C(c2nnnn2C2CCCC2)N2CCC(n3c(=O)[nH]c4ccccc43)CC2)cc1` (stereo not drawn) was tested, and the inhibition was inactive: -1.91%.
In the case of `CC(C)(C)n1nnnc1C(c1ccccc1OC(F)(F)F)N1CCC(n2c(=O)[nH]c3ccccc32)CC1` (stereo not drawn), the inhibition is reported as inactive: 0.964%.
With `O=C(NCC1(N2CCCCC2)CCCCC1)c1ccc(OC(F)F)cc1` the inhibition was inactive: -54.8%.
In the case of `CSc1ccc(C(=O)NCC2(N3CCOCC3)CCCCC2)cc1`, the inhibition is reported as inactive: 0.0945%.
In the case of `O=C(NCC1(N2CCCCC2)CCCCC1)c1cccc([N+](=O)[O-])c1`, the inhibition is reported as inactive: -1.92%.
For `CCN1CCC(Nc2ccc(Cl)cc2)CC1`, the inhibition was inactive: 0.0135%.
In the case of `O=c1[nH]c2ccccc2n1C1CCN(C(c2ccccc2OC(F)(F)F)c2nnnn2C2CCCC2)CC1` (stereo not drawn), the inhibition is reported as inactive: -4.74%.
In the case of `O=C(NCC1(N2CCCCC2)CCCCC1)c1cccc(C(F)(F)F)c1`, the inhibition is reported as inactive: 4.56%.
With `CCCCn1nnnc1C(c1cccc2ccccc12)N1CCC(n2c(=O)[nH]c3ccccc32)CC1` (stereo not drawn) the inhibition was inactive: -3.78%.
`COc1ccc(NC2CCN(C(=O)OC(C)(C)C)CC2)cc1` was tested, and the inhibition was inactive: -13.8%.
`CC(C)c1ccc(C(=O)NCC2(N3CCOCC3)CCCCC2)cc1` was tested, and the inhibition was inactive: -3.92%.
`CN1CCN(CCOC(=O)C(O)(c2ccccc2)c2ccccc2)CC1` was tested, and the inhibition was inactive: 1.79%.
With `COc1cc(C(=O)NCC2(N3CCCCC3)CCCCC2)ccc1OC(F)F` the inhibition was inactive: -44.3%.
In the case of `CCOc1ccc(C)cc1CN(CCCl)CCCl`, the inhibition is reported as inactive: -3.5%.
With `CC(C)(C)n1nnnc1C(c1ccccc1)N1CCC(n2c(=O)[nH]c3ccccc32)CC1` (stereo not drawn) the inhibition was inactive: 0.093%.
For `O=C1CCN(Cc2ccccc2)CC1`, the inhibition was inactive: 0.754%.
With `O=C(NCC1(N2CCCCC2)CCCCC1)c1ccc(F)cc1` the inhibition was inactive: -11.4%.
For `CCCCOc1ccc(C(=O)NCC2(N3CCOCC3)CCCCC2)cc1`, the inhibition was inactive: -4.57%.
`O=P1(N(CCCl)CCCl)SCCCS1` was tested, and the inhibition was inactive: 1.45%.
`CCCCn1nnnc1C(c1cc2ccccc2o1)N1CCC(n2c(=O)[nH]c3ccccc32)CC1` (stereo not drawn) was tested, and the inhibition was inactive: -3.37%.
In the case of `CCOC(=O)N1CCC(Nc2ccc(F)cc2)CC1`, the inhibition is reported as inactive: -8.64%.
`O=c1[nH]c2ccccc2n1C1CCN(C(c2ccccc2)c2nnnn2C2CCCCC2)CC1` (stereo not drawn) was tested, and the inhibition was inactive: -12.4%.
With `O=c1[nH]c2ccccc2n1C1CCN(C(c2cccc3ccccc23)c2nnnn2C2CCCC2)CC1` (stereo not drawn) the inhibition was inactive: -1.76%.
In the case of `COc1cc(C(=O)NCC2(N(C)C)CCCCC2)ccc1OC(F)F`, the inhibition is reported as inactive: 3.54%.
With `CCOC(=O)N1CCC(Nc2cccc(C)c2)CC1` the inhibition was inactive: 2.86%.
In the case of `O=C(NCC1(N2CCCCC2)CCCCC1)c1ccc(=O)[nH]c1`, the inhibition is reported as inactive: 7.99%.
In the case of `CCCCn1nnnc1C(c1cccs1)N1CCC(n2c(=O)[nH]c3ccccc32)CC1` (stereo not drawn), the inhibition is reported as inactive: 37.9%.
In the case of `CCCCn1nnnc1C(CC)N1CCC(n2c(=O)[nH]c3ccccc32)CC1` (stereo not drawn), the inhibition is reported as inactive: -0.768%.
For `O=C(NCC1(N2CCCCC2)CCCCC1)c1cccs1`, the inhibition was inactive: -6.54%.
For `COc1ccc(C(=O)NCC2(N3CCCCC3)CCCCC2)cc1`, the inhibition was inactive: -7.94%.
`CCC(c1nnnn1C1CCCC1)N1CCC(n2c(=O)[nH]c3ccccc32)CC1` (stereo not drawn) was tested, and the inhibition was inactive: -1.12%.
For `COc1ccc(C(=O)NCC2(N3CCCCC3)CCCCC2)c(OC)c1OC`, the inhibition was inactive: -37.5%.
With `CC(C)(C)OC(=O)N1CCC(N(C(=O)c2ccccc2)c2ccc(F)cc2)CC1` the inhibition was inactive: 0.104%.
With `CSc1ccccc1C(=O)NCC1(N2CCCCC2)CCCCC1` the inhibition was inactive: -27.6%.
`Cc1cccc(NC2(C#N)CCN(Cc3ccccc3)CC2)c1` was tested, and the inhibition was inactive: -4.88%.
For `O=c1[nH]c2ccccc2n1C1CCN(C(c2ccccc2OC(F)(F)F)c2nnnn2C2CCCCC2)CC1` (stereo not drawn), the inhibition was inactive: -2.86%.
`O=C(NCC1(N2CCCCC2)CCCCC1)c1ccc(Cl)nc1` was tested, and the inhibition was inactive: -2.41%.
In the case of `Cc1cc(C)cc(N(C(=O)c2ccccc2)C2CCN(C(=O)OC(C)(C)C)CC2)c1`, the inhibition is reported as inactive: 0.212%.
In the case of `CCOC(=O)N1CCC(Nc2ccc(OC)cc2)CC1`, the inhibition is reported as inactive: -6.15%.
With `CCCCn1nnnc1C(c1ccc(OC)cc1)N1CCC(n2c(=O)[nH]c3ccccc32)CC1` (stereo not drawn) the inhibition was inactive: -2.83%.
With `O=c1[nH]c2ccccc2n1C1CCN(C(c2cc3ccccc3o2)c2nnnn2C2CCCCC2)CC1` (stereo not drawn) the inhibition was inactive: -4.06%.
For `O=C(OC1CN2CCC1CC2)C1c2ccccc2Oc2ccccc21` (stereo not drawn), the inhibition was inactive: -0.513%.
For `N#CC1(Nc2ccccc2)CCN(Cc2ccccc2)CC1`, the inhibition was inactive: 10.7%.
`O=C(NCC1(N2CCCCC2)CCCCC1)c1ccc(Cl)s1` was tested, and the inhibition was inactive: -6.39%.
With `COc1ccc(Cl)cc1C(=O)NCC1(N2CCOCC2)CCCCC1` the inhibition was inactive: -0.149%.
